## Apparent affinities of Ab-14 variants for a coronavirus HR2 peptide

From the AlphaSeq antibody data of Engelhart et al. 2022 (doi:10.1038/s41597-022-01779-4), copy in the FLAb collection.

Antigen: PDVDLGDISGINAS, a 14-residue peptide of the SARS-CoV-2 spike HR2 region.

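In library AAYL49, one, two or three CDR residues were substituted; doubles and triples were drawn at random. The assay is AlphaSeq: two haploid yeast populations carry antibody and antigen on their surface. Binding brings cells together so that they mate, and sequencing counts the barcode pairs among the diploids. Each replicate has its own calibration line, from reference interactions of the BCL2 family. Each pool was mated in three replicate cultures.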

Ab-14 is the parent antibody, in scFv form: VH, then a (GGGGS)3 linker, then VL. The light chain is unchanged in all variants.
VH: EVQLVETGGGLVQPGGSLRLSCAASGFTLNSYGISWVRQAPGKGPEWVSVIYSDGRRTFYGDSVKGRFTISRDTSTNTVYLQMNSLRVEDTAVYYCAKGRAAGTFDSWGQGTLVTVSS
VL: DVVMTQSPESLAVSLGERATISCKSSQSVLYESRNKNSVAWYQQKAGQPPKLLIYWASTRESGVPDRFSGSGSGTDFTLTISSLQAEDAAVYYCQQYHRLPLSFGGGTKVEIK

The parent's heavy chain CDRs are GFTLNSYGIS, VIYSDGRRTFYGDSVK, GRAAGTFDS; each variant's own CDRs replace them letter for letter. Numbers give log10(Kd / nM), so 0 is 1 nM and 3 is 1 µM. Smaller is tighter. The mean shown is taken over the replicates in which the pair was detected. "n.d." marks a missing value. The strain was present, yet no cells mated with the target were sequenced in that replicate, which points to weak or no binding.

| # | CDR-H1 | CDR-H2 | CDR-H3 | log10 Kd (nM) by replicate | mean log10 Kd (nM) | control signals |
|---|---|---|---|---|---|---|
| 1 | GFTDNSYGIS | VILSDGRRTFCGDSVK | GRAAGTFDS | n.d. n.d. n.d. | n.d. | 0/9 |
| 2 | GFTLNSDGIS | VIYSDRRRTAYGDSVK | GRAAGTFDS | n.d. n.d. n.d. | n.d. | 0/9 |
| 3 | GFTLNSYGLS | VIYSDGRRTFYIDSVK | GRAAGTFDS | 2.17 1.47 1.19 | 1.61 | 0/9 |
| 4 | GFTLNSYQIS | VIYSDGRRTFRGDSVK | GTAAGTFDS | 5.04 3.67 5.20 | 4.64 | 4/9 (4.38) |
| 5 | GFTLNSYGIS | VIYSDGRRTFYGDDVK | GRAPGTFDS | 1.24 1.34 1.23 | 1.27 | 4/9 (4.56) |
| 6 | GFTLISNGIS | VIYSDGRNTFYGDSVK | GRAAGTFDS | 6.32 4.49 n.d. | 5.40 | 5/9 (4.61) |
| 7 | GFTLNSYGIS | VKYSDGRRSFYGDSVK | GRAAPTFDS | n.d. n.d. 5.39 | 5.39 | 4/9 (4.19) |
| 8 | GFTLNSYMIS | VIYSDGRRTFYGDSVK | GRMAGTFDS | n.d. n.d. n.d. | n.d. | 1/9 (5.01) |
| 9 | GFTLNSYGIS | VIYSDGRRTFYGDSVK | GFAAGTQES | 4.88 n.d. n.d. | 4.88 | 4/9 (3.20) |
| 10 | GFTLNSYGIS | VIYSDGRRTFYGDSVK | GRVAGKFPS | n.d. n.d. n.d. | n.d. | 1/9 (2.94) |
| 11 | GFTLNSYGIS | VIYSDGDDTFYGDSVK | GRAAGTFDS | n.d. n.d. n.d. | n.d. | 1/9 (3.07) |
| 12 | GFTLNDYLYS | VIYSDGRRTFYGDSVK | GRAAGTFDS | n.d. n.d. n.d. | n.d. | 2/9 (4.34) |
| 13 | GFTLNSYGIS | GIESDGRRTFYGMSVK | GRAAGTFDS | 4.05 3.33 5.40 | 4.26 | 3/9 (3.42) |
| 14 | GFTLNSYGIS | VIYSNGRHTFYGISVK | GRAAGTFDS | n.d. n.d. n.d. | n.d. | 0/9 |
| 15 | GFTLNSYGIS | VIYSDGRRTFYGDSVK | GKAAGYFIS | 1.20 0.98 1.30 | 1.16 | 0/9 |
| 16 | GFTLNSYGIS | VIYSDGRRTFYGNSVK | GRAAGTFDP | n.d. n.d. 3.06 | 3.06 | 0/9 |
| 17 | GFTKNSYGAS | VHYSDGRRTFYGDSVK | GRAAGTFDS | n.d. n.d. 4.73 | 4.73 | 1/9 (3.85) |
| 18 | GFTLNSQGIS | VIYSDCRRTFYGDSVK | GRAAGTFDS | n.d. n.d. n.d. | n.d. | 2/9 (3.45) |
| 19 | GFTLNSYIIS | VIYMDGRRTFYGDSYK | GRAAGTFDS | n.d. 3.15 4.63 | 3.89 | 4/9 (4.49) |
| 20 | GFTLNSIGIS | VIYSDGRRTFYGHSVK | KRAAGTFDS | n.d. 4.36 n.d. | 4.36 | 0/9 |
| 21 | GFTLNSYGIS | VIYFDGRRTFTGDSVK | GRAAGTFDH | n.d. n.d. n.d. | n.d. | 0/9 |
| 22 | GFTLNWYGIA | VIYSDGRRTFYSDSVK | GRAAGTFDS | n.d. n.d. n.d. | n.d. | 1/9 (1.66) |
| 23 | GFTLNSYCIS | VIYSDGRRAFYPDSVK | GRAAGTFDS | n.d. n.d. n.d. | n.d. | 3/9 (3.85) |
| 24 | GFTANSYGIA | VLYSDGRRTFYGDSVK | GRAAGTFDS | n.d. n.d. n.d. | n.d. | 0/9 |
| 25 | GFTLNSKGIS | VIYSDMRRTFYGDSVK | GRAIGTFDS | n.d. n.d. n.d. | n.d. | 0/9 |
| 26 | AFTLNSYGHS | VIHSDGRRTFYGDSVK | GRAAGTFDS | n.d. n.d. n.d. | n.d. | 0/9 |
| 27 | GFRLNSYGIS | VIYSDGCRRFYGDSVK | GRAAGTFDS | n.d. n.d. n.d. | n.d. | 0/9 |
| 28 | AFTLNRYGIS | VIYSDGRRTFYGDSVK | GCAAGTFDS | 2.47 2.20 2.07 | 2.25 | 0/9 |
| 29 | GFTLNSYGIS | VIYSDGARTKYGDSVK | GRAARTFDS | n.d. 4.82 n.d. | 4.82 | 2/9 (3.28) |
| 30 | GFTLNSYGIS | VIYSDGRRTFMGDSVK | GRAACYFDS | 2.10 2.91 2.61 | 2.54 | 2/9 (3.80) |
| 31 | GFALNSYGIS | VIYSDGRRTFYGDSVW | GRAAGRFDS | 2.37 2.11 2.63 | 2.37 | 1/9 (5.01) |
| 32 | GFTLNSYGIS | VIYSDGRRTFYIDSVK | GRARITFDS | 2.55 2.26 2.74 | 2.52 | 1/9 (3.14) |

Extract of 3 entries:

CDR-H1	CDR-H2	CDR-H3	log10 Kd (nM) by replicate	mean log10 Kd (nM)	control signals
GFTLNSIGIS	VIYSDGRRTFYGHSVK	KRAAGTFDS	n.d. 4.36 n.d.	4.36	0/9
GFTLNSYCIS	VIYSDGRRAFYPDSVK	GRAAGTFDS	n.d. n.d. n.d.	n.d.	3/9 (3.85)
GFTDNSYGIS	VILSDGRRTFCGDSVK	GRAAGTFDS	n.d. n.d. n.d.	n.d.	0/9

Nonspecific signal, from three strains lacking the peptide, appeared in 15% of pairings of library AAYL49, centred on 4.06 (5% of these signals below 2.83); values are not corrected for it. For each scFv, signals with the empty controls are counted beside the result, with their mean in brackets. In this assay the parent's reference entry averaged 0.65; its copy inside this library read 4.11 (one replicate of three).